Source: patent US9174984B2, “Chemical compounds” (GlaxoSmithKline Intellectual Property (No. 2) Limited, priority 2011, dated 2015)

Sequences of proteins named here, by UniProt entry; tags and fusion partners are left off. A change or cut given only in a name is not applied to a line headed by its entry.
UniProt P26358: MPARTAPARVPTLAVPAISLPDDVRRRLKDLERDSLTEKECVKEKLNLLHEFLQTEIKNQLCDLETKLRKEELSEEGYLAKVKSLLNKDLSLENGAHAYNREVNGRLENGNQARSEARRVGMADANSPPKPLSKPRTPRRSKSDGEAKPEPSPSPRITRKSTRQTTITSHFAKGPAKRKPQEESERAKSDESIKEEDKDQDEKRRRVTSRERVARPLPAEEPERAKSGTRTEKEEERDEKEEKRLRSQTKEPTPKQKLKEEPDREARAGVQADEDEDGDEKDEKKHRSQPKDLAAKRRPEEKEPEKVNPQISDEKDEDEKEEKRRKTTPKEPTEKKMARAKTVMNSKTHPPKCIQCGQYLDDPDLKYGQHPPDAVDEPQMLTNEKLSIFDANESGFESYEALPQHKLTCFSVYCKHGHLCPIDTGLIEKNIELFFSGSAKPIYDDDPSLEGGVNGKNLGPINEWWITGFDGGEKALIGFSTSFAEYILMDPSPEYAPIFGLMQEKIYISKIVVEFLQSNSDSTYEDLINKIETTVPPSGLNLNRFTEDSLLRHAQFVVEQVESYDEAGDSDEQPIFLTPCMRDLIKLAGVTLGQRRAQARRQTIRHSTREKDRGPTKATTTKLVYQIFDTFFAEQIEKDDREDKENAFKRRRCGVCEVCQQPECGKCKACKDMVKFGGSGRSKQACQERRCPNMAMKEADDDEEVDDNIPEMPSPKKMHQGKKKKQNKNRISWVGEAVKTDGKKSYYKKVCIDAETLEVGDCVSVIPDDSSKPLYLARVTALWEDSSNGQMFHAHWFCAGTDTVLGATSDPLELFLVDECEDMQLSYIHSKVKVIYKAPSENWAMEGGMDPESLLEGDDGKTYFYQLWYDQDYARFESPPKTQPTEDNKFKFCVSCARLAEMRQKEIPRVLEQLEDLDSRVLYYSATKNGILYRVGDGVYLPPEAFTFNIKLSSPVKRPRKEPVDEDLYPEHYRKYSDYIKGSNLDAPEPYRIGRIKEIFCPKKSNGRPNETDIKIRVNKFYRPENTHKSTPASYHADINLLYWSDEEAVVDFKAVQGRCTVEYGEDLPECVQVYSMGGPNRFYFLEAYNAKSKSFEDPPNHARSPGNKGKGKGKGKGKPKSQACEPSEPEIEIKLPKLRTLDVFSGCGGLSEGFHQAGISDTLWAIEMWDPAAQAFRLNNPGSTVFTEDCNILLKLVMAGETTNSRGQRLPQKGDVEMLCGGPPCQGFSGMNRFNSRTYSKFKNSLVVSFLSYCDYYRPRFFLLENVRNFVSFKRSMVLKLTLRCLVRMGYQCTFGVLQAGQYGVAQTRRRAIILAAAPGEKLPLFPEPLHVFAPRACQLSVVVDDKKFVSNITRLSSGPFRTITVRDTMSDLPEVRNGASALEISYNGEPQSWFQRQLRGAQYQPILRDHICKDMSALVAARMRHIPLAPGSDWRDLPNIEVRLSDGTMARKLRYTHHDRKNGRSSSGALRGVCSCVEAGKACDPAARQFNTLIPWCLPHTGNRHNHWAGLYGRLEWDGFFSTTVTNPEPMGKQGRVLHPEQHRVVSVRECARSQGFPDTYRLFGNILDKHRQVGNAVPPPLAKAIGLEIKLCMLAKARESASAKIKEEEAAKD

Biological target: T1, Human full-length DNMT1 (Homo sapiens, UniProt P26358)
T1 construct: Human full-length DNMT1 enzyme purchased from BPS Biosciences; purchased BPS Biosciences
Experiment: DNMT inhibition assay (3H-SAM filter-binding) against DNMT1
Type: biochemical
Conditions: read-out: IC50 against DNMT 1

In the case of `C#CC(=O)Nc1cccc(CNC(=S)NCc2ccnc3[nH]ccc23)c1` [Example 6, N-(3-((3-((1H-Pyrrolo[2,3-b]pyridin-4-yl)methyl)thioureido)methyl)phenyl)propiolamide], the IC50 is reported as 19.1 to 300 µM.
